Test results reported in patent US20100239639A1, “MEDICATED PATCH” (HISAMITSU PHARMACEUTICAL CO., INC., priority 2007, published 2010).

Assay: Solubility test of BM-DBM
Format: physicochemical
Settings: 1 g BM-DBM mixed with 2 g additive, dissolved at 140° C., cooled to room temperature for 30 min

With CC1CCC(C(C)C)C(OCC(O)CO)C1 [L-menthyl glyceryl ether] the “Solubility of BM-DBM” value was “◯” and the “solubility of BM-DBM (in words)” value was “particularly good solubility of BM-DBM”.
